{"source": "patent EP0386951A2", "about": "“An improved diluent formulation for daptomycin” (ELI LILLY AND COMPANY, priority 1989, dated 1990)", "assay": "Degradation kinetic studies (rate of appearance of degradation products vs pH)", "assay_type": "physicochemical", "data": [{"substance": "daptomycin", "values": [{"measurement": "appearance half-life for the degradation products", "setting": "25°C and pH 4.5", "value": 6, "unit": "h"}, {"measurement": "appearance half-life for the degradation products", "setting": "25°C and pH 7.0", "value": 63, "unit": "h"}]}]}
